Data taken from patent publication US7294496B1, “Cloned human lysophospholipase” (The Regents of the University of California, priority 2000, dated 2007).

Protein sequences, listed by entry. Tags and fused reporters are not part of them.
UniProt O75608, whole entry F152L: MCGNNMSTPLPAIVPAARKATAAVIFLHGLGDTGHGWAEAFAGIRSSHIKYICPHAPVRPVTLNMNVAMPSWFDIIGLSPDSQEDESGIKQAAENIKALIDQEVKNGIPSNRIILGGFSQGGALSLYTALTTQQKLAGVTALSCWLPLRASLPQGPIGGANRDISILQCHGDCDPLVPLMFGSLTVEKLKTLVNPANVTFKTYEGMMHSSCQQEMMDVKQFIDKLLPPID
UniProt P97823, whole entry: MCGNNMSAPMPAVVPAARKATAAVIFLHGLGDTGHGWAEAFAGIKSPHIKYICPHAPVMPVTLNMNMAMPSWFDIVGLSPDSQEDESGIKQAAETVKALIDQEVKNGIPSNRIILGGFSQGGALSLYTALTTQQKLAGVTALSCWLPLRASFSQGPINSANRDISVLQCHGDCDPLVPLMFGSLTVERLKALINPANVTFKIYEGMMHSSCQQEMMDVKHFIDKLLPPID

Experiments:
[1] = target: human recombinant LysoPLA (Homo sapiens, UniProt O75608, F152L); test: Inhibition of human LysoPLA; type: biochemical
mouse LysoPLA = mouse LysoPLA (Mus musculus, UniProt P97823); test: Inhibition of mouse LysoPLA; details: mouse enzyme, 125 μM LysoPC; similar results as human enzyme
Method: Various concentrations of each inhibitor (BioMol) were prepared in DMSO. 5 μl of each inhibitor was added to 480 μl of LysoPC substrate (125 μM Ly-soPC in the assay buffer). Enzyme (either mouse or human PLA) was added to the substrate-inhibitor mixture to start the reaction, which was incubated at 40° C. for 30 min. Control experiments were performed with the same amount of enzyme with 5 μl DMSO in the incubation mixture. The reversibility of the inhibition was tested by pre-incubation of the enzyme in the presence or absence of the inhibitor, followed by overnight dialysis in the assay buffer. The recovery of the enzyme activity as a function of time was then followed. Each data point represents an average of duplicates.

CCCCC/C=C\C/C=C\C/C=C\C/C=C\CCCCOP(=O)(F)OC (stereo not shown)
reversibility of inhibition ([1]; enzyme and inhibitor mixture assayed after overnight dialysis): irreversible
inhibition of LysoPLA activity (in words) ([1]; human enzyme, 125 μM LysoPC): most potent one
IC50 ([1]; read-out: apparent IC50, 125 μM LysoPC, 40° C., 30 min (FIG. 5)): 600 nM
inhibition of LysoPLA activity (in words) (mouse LysoPLA): most potent one
